Assay results as given in patent US5840838.

Target: Glutamine synthetase (GS) in brain cytosolic extract from male mongolian gerbil cortical homogenate (mongolian gerbil)

“Aβ(1-40), native, unmodified synthetic amyloid beta peptide (Bachem lot ZM094)” gave a loss of GS activity after 3 hours coincubation at 37 C (colorimetric GS assay), relative to initial activity of 45%.
“TFE-treated Aβ(1-40) (synthetic amyloid beta peptide, Bachem lot ZM094, after trifluoroethanol solvation and evaporation)” showed a loss of GS activity after 3 hours coincubation at 37 C (colorimetric GS assay), relative to initial activity of over 90%.
